Measurements taken from patent US11618753B2 (priority 2018, dated 2023).

Amino acid sequences for entries named in this document (tags omitted). A change or cut given only in a name is not applied to a line headed by its entry.
UniProt O00329: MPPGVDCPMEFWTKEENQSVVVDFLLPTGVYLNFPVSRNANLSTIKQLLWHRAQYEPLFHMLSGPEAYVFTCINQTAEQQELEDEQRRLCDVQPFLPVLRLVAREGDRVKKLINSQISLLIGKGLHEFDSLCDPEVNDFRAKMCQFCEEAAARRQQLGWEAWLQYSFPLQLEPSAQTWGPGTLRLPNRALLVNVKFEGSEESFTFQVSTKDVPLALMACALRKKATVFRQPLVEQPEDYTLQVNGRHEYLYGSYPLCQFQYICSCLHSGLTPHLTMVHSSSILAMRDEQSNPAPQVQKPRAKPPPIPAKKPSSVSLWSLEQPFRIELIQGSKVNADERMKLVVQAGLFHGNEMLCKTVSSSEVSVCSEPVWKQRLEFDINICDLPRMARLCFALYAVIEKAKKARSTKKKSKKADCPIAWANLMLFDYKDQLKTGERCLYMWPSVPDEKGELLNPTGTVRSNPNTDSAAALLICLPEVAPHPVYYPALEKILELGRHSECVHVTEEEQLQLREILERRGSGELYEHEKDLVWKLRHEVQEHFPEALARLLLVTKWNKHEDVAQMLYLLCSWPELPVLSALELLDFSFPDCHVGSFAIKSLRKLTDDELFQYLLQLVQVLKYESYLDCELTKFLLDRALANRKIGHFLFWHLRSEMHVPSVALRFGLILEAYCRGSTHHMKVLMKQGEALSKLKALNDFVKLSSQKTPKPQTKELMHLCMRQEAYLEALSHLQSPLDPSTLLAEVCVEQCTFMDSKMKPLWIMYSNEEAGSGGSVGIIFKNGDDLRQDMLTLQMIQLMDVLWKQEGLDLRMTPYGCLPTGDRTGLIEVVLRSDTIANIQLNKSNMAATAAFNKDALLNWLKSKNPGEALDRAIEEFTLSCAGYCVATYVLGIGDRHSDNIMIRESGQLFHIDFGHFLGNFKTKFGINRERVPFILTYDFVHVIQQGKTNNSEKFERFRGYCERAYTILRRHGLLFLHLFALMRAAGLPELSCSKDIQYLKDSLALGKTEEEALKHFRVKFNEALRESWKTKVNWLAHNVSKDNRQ

Target: GST-tagged PIK3Cδ in complex with PIK3R1 (Homo sapiens (Human), UniProt O00329)
Test: biochemical

SMILES | IC50 [nM]
CC(CCNC(=O)c1cccc(-c2c(F)cc3c(N)ncnn23)c1)c1ccccc1 (racemic) [Example 69, 3-{4-amino-6-fluoropyrrolo[2,1-f][1,2,4]triazin-7-yl}-N-(3-phenylbutyl) benzamide] | > 1500
COc1ccc(-c2cc(C(F)(F)F)c3c(N)ncnn23)cc1C(=O)NCCC(C)c1ccccc1 (racemic) [Example 160, 5-[4-amino-5-(trifluoromethyl)pyrrolo[2,1-f][1,2,4]triazin-7-yl]-2-methoxy-N-(3-phenylbutyl)benzamide] | > 1500
COc1ncc(-c2cc(C(F)(F)F)c3c(N)ncnn23)cc1C(=O)N[C@H]1CCC[C@@H](c2ccccc2)C1 (racemic) [Example 1693, 5-(4-amino-5-(trifluoromethyl)pyrrolo[2,1-f][1,2,4]triazin-7-yl)-2-methoxy-N-((1SR,3RS)-3-phenylcyclohexyl)nicotinamide] | > 15000
Nc1ncnn2c(-c3cc(C(=O)N[C@@H]4CN(C(=O)C5CCC(F)(F)C5)C[C@@H]4F)c(Cl)cc3F)cc(C(F)(F)F)c12 (single isomer, unassigned) [Example 886] | 847
CC(CCNC(=O)c1cccc(-c2ccc3c(N)ncnn23)c1)c1ccccc1 (stereo not drawn) [Example 1, 3-{4-aminopyrrolo[2,1-f][1,2,4]triazin-7-yl}-N-(3-phenylbutyl)benzamide] | > 1500
CC(CCNC(=O)c1cccc(-c2cc(C(F)(F)F)c3c(N)ncnn23)c1)c1ccccc1 (stereo not drawn) [Example 2, 3-[4-amino-5-(trifluoromethyl)pyrrolo[2,1-f][1,2,4]triazin-7-yl]-N-(3-phenylbutyl)benzamide] | 1190
Nc1ncnn2c(-c3ccc(F)c(C(=O)Nc4cnn(Cc5ccccc5)c4)c3)cc(C(F)(F)F)c12 [Example 3, 5-[4-amino-5-(trifluoromethyl)pyrrolo[2,1-f][1,2,4]triazin-7-yl]-N-(1-benzyl-1H-pyrazol-4-yl)-2-fluorobenzamide] | > 1500
COc1ncc(-c2cc(F)c3c(N)ncnn23)cc1C(=O)Nc1cnn(Cc2ccccc2)c1 [Example 8, 5-{4-amino-5-fluoropyrrolo[2,1-f][1,2,4]triazin-7-yl}-N-(1-benzyl-1H-pyrazol-4-yl)-2-methoxypyridine-3-carboxamide] | > 1500
Nc1ncnn2c(-c3cnc(F)c(C(=O)NCC[C@H](O)c4ccc(Cl)cc4)c3)cc(C(F)(F)F)c12 [Example 17, 5-[4-amino-5-(trifluoromethyl)pyrrolo[2,1-f][1,2,4]triazin-7-yl]-N-[(3S)-3-(4-chlorophenyl)-3-hydroxypropyl]-2-fluoropyridine-3-carboxamide] | > 1500
Nc1ncnn2c(-c3cccc(C(=O)Nc4cnn(Cc5ccccc5)c4)c3)ccc12 [Example 60, 3-(4-aminopyrrolo[2,1-f][1,2,4]triazin-7-yl)-N-(1-benzyl-1H-pyrazol-4-yl)benzamide] | > 1500
COc1ncc(-c2c(F)cc3c(N)ncnn23)cc1C(=O)NCCC(C)c1ccccc1 (stereo not drawn) [Example 61, 5-(4-amino-6-fluoropyrrolo[2,1-f][1,2,4]triazin-7-yl)-2-methoxy-N-(3-phenylbutyl)nicotinamide] | > 1500
COc1ncc(-c2c(F)cc3c(N)ncnn23)cc1C(=O)Nc1cnn(Cc2ccccc2)c1 [Example 62, 5-(4-amino-6-fluoropyrrolo[2,1-f][1,2,4]triazin-7-yl)-N-(1-benzyl-1H-pyrazol-4-yl)-2-methoxynicotinamide] | > 1500
COc1ccc(-c2cc(C(F)(F)F)c3c(N)ncnn23)cc1C(=O)Nc1cnn(Cc2ccccc2)c1 [Example 65, 5-[4-amino-5-(trifluoromethyl)pyrrolo[2,1-f][1,2,4]triazin-7-yl]-N-(1-benzyl-1H-pyrazol-4-yl)-2-methoxybenzamide] | 1420
Nc1ncnn2c(-c3cccc(C(=O)Nc4cnn(Cc5ccccc5)c4)c3)c(F)cc12 [Example 71, 3-{4-amino-6-fluoropyrrolo[2,1-f][1,2,4]triazin-7-yl}-N-(1-benzyl-1H-pyrazol-4-yl)benzamide] | > 1500
Nc1ncnn2c(-c3cccc(C(=O)NCC[C@@H](O)c4ccc(Cl)cc4)c3)cc(C(F)(F)F)c12 [Example 73, 3-[4-amino-5-(trifluoromethyl)pyrrolo[2,1-f][1,2,4]triazin-7-yl]-N-[(3R)-3-(4-chlorophenyl)-3-hydroxypropyl]benzamide] | 165
Nc1ncnn2c(-c3cccc(C(=O)NCCC(O)c4ccc(F)cc4)c3)cc(C(F)(F)F)c12 (stereo not drawn) [Example 74, 3-[4-amino-5-(trifluoromethyl)pyrrolo[2,1-f][1,2,4]triazin-7-yl]-N-[3-(4-fluorophenyl)-3-hydroxypropyl]benzamide] | 121
Nc1ncnn2c(-c3cccc(C(=O)Nc4cnn(Cc5ccccc5)c4)c3)cc(C(F)(F)F)c12 [Example 76, 3-[4-amino-5-(trifluoromethyl)pyrrolo[2,1-f][1,2,4]triazin-7-yl]-N-(1-benzyl-1H-pyrazol-4-yl)benzamide] | 1160

SMILES | IC50 [nM]
Nc1ncnn2c(-c3cccc(C(=O)NCC[C@H](O)c4ccc(Cl)cc4)c3)cc(C(F)(F)F)c12 [Example 77, 3-[4-amino-5-(trifluoromethyl)pyrrolo[2,1-f][1,2,4]triazin-7-yl]-N-[(3S)-3-(4-chlorophenyl)-3-hydroxypropyl]benzamide] | 260
Nc1ncnn2c(-c3cccc(C(=O)N[C@H]4CCN(Cc5ccccc5)C4)c3)cc(C(F)(F)F)c12 [Example 78, 3-[4-amino-5-(trifluoromethyl)pyrrolo[2,1-f][1,2,4]triazin-7-yl]-N-[(3S)-1-benzylpyrrolidin-3-yl]benzamide] | 45
Nc1ncnn2c(-c3cccc(C(=O)N4CCC[C@H](Cc5ccc(F)cc5)C4)c3)cc(C(F)(F)F)c12 [Example 81, 7-{3-[(3R)-3-[(4-fluorophenyl)methyl)piperidine-1-carbonyl]phenyl}-5-(trifluoromethyl)pyrrolo[2,1-f][1,2,4]triazin-4-amine] | 565
Nc1ncnn2c(-c3cccc(C(=O)N4CCC[C@@H](Cc5ccc(F)cc5)C4)c3)cc(C(F)(F)F)c12 [Example 82, 7-{3-[(3S)-3-[(4-fluorophenyl)methyl]piperidine-1-carbonyl]phenyl}-5-(trifluoromethyl)pyrrolo[2,1-f][1,2,4]triazin-4-amine] | > 1500
COc1ncc(-c2cc(C(F)(F)F)c3c(N)ncnn23)cc1C(=O)NCCC(C)c1ccccc1 (stereo not drawn) [Example 109, 5-[4-amino-5-(trifluoromethyl)pyrrolo[2,1-f][1,2,4]triazin-7-yl]-2-methoxy-N-(3-phenylbutyl)pyridine-3-carboxamide] | > 1500
COc1ncc(-c2cc(C(F)(F)F)c3c(N)ncnn23)cc1C(=O)Nc1cnn(Cc2ccccc2)c1 [Example 110, 5-[4-amino-5-(trifluoromethyl)pyrrolo[2,1-f][1,2,4]triazin-7-yl]-N-(1-benzyl-1H-pyrazol-4-yl)-2-methoxypyridine-3-carboxamide] | > 1500
COc1ncc(-c2cc(C(F)(F)F)c3c(N)ncnn23)cc1C(=O)NCCC(O)c1ccccc1 (stereo not drawn) [Example 117, 5-[4-amino-5-(trifluoromethyl)pyrrolo[2,1-f][1,2,4]triazin-7-yl]-N-(3-hydroxy-3-phenylpropyl)-2-methoxypyridine-3-carboxamide] | 528
COc1ncc(-c2cc(C(F)(F)F)c3c(N)ncnn23)cc1C(=O)N[C@H]1CCN(Cc2ccccc2)C1 [Example 119, 5-[4-amino-5-(trifluoromethyl)pyrrolo[2,1-f][1,2,4]triazin-7-yl]-N-[(3S)-1-benzylpyrrolidin-3-yl]-2-methoxypyridine-3-carboxamide] | 154
COc1ncc(-c2cc(C(F)(F)F)c3c(N)ncnn23)cc1C(=O)NCCC(O)c1ccc(F)cc1 (stereo not drawn) [Example 125, 5-[4-amino-5-(trifluoromethyl)pyrrolo[2,1-f][1,2,4]triazin-7-yl]-N-[3-(4-fluorophenyl)-3-hydroxypropyl]-2-methoxypyridine-3-carboxamide] | 1100
COc1ncc(-c2cc(C(F)(F)F)c3c(N)ncnn23)cc1C(=O)N1CCCC(Cc2cccc(F)c2)C1 (stereo not drawn) [Example 129, 7-(5-{3-[(3-fluorophenyl)methyl]piperidine-1-carbonyl}-6-methoxypyridin-3-yl)-5-(trifluoromethyl)pyrrolo[2,1-f][1,2,4]triazin-4-amine] | 211
COc1ncc(-c2cc(C(F)(F)F)c3c(N)ncnn23)cc1C(=O)N1CCC[C@@H](Cc2cccc(F)c2)C1 [Example 133, 7-{5-[(3S)-3-[(3-fluorophenyl)methyl]piperidine-1-carbonyl]-6-methoxypyridin-3-yl}-5-(trifluoromethyl)pyrrolo[2,1-f][1,2,4]triazin-4-amine] | 162
Cc1ncc(-c2cc(C(F)(F)F)c3c(N)ncnn23)cc1C(=O)Nc1cnn(Cc2ccccc2)c1 [Example 166, 5-[4-amino-5-(trifluoromethyl)pyrrolo[2,1-f][1,2,4]triazin-7-yl]-N-(1-benzyl-1H-pyrazol-4-yl)-2-methylpyridine-3-carboxamide] | 140
Cc1ncc(-c2cc(C(F)(F)F)c3c(N)ncnn23)cc1C(=O)NCCC(O)c1ccccc1 (stereo not drawn) [Example 167, 5-[4-amino-5-(trifluoromethyl)pyrrolo[2,1-f][1,2,4]triazin-7-yl]-N-(3-hydroxy-3-phenylpropyl)-2-methylpyridine-3-carboxamide] | 137
Cc1ncc(-c2cc(C(F)(F)F)c3c(N)ncnn23)cc1C(=O)NCCC(O)c1ccc(F)cc1 (stereo not drawn) [Example 168, 5-[4-amino-5-(trifluoromethyl)pyrrolo[2,1-f][1,2,4]triazin-7-yl]-N-[3-(4-fluorophenyl)-3-hydroxypropyl]-2-methylpyridine-3-carboxamide] | 247
Nc1ncnn2c(-c3cnc(C(F)(F)F)c(C(=O)NCC[C@@H](O)c4ccc(Cl)cc4)c3)cc(C(F)(F)F)c12 [Example 181, 5-[4-amino-5-(trifluoromethyl)pyrrolo[2,1-f][1,2,4]triazin-7-yl]-N-[(3R)-3-(4-chlorophenyl)-3-hydroxypropyl]-2-(trifluoromethyl)pyridine-3-carboxamide] | 450
Nc1ncnn2c(-c3cnc(C(F)(F)F)c(C(=O)Nc4cnn(Cc5ccccc5)c4)c3)cc(C(F)(F)F)c12 [Example 184, 5-[4-amino-5-(trifluoromethyl)pyrrolo[2,1-f][1,2,4]triazin-7-yl]-N-(1-benzyl-1H-pyrazol-4-yl)-2-(trifluoromethyl)pyridine-3-carboxamide] | 1430
